Test: Partition coefficient (log P), reverse phase HPLC

In the case of `CCOCCO[C@@H]1CC[C@@H](C[C@@H](C)[C@@H]2CC(=O)[C@H](C)/C=C(\C)[C@@H](O)[C@@H](OC)C(=O)[C@H](C)C[C@H](C)/C=C/C=C/C=C(\C)[C@@H](OC)C[C@@H]3CC[C@@H](C)[C@@](O)(O3)C(=O)C(=O)N3CCCC[C@H]3C(=O)O2)C[C@H]1OC` [BIOLIMUS A9, 42-O-(2-ethoxyethyl)rapamycin], the “lipophilicity relative to sirolimus or everolimus” value is reported as “approximately ten times more lipophilic than sirolimus or everolimus”.
